Assay outcomes as filed in PubChem BioAssay.
GIV Gai3 FP: GIV-Galpha-i interaction inhibition. P08753. Galpha-i3/FITC-GIV peptide fluorescence polarization, 90 min; active compounds read low; scaled: aluminum fluoride 0%, vehicle 100%. percent of control (FP), % (test concentration not listed). 210,000 compounds, 0.42% hits. AID 1224905;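 active = replicate mean at 85% of control or lower, very high polarization wells dropped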;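 also: lower values mean more displacement of the GIV peptide from Galpha-i3; wells of about 15 µL received 100 nL stock; the first replicate is given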
HCMV UL50-53 inh: inhibitors of HCMV UL50-UL53 interaction, biochemical, HTRF. HCMV UL50-UL53 nuclear egress complex (human cytomegalovirus). normalized percent inhibition. inhibition, % (test concentration not listed). hit rate 0.15% among 190,000; in the data active = inhibition above about 27%, passing the limit was not always enough
GIV-Gai FP conf: inhibitors of GIV peptide binding to Galpha-i3, confirmation, biochemical, fluorescence polarization, FITC-GIV peptide, rat Galphai3; shares compounds with GIV Gai3 FP; active compounds read low; fluorescence polarization, mP at 100 µM; hit rate 38% among 580;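 active = inhibition score of 15 or more, meaning 100 minus mean polarization as percent of control over three replicates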;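 also: lower mP means peptide displaced from Galphai3 so more inhibition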
GIV-Gai AS conf: inhibitors of GIV binding to Galpha-i3, confirmation, orthogonal assay for GIV-Galpha-i inhibitor project, biochemical, AlphaScreen, His-GIV, GST-Galphai3. AID 1259351, 2017. purified proteins, 90 min; active compounds read low. hit rate 39% among 580. AlphaScreen counts at 100 µM. shares compounds with GIV Gai3 FP;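 active = inhibition score at or above a set limit, where the score is 100 minus the three-replicate mean percent of control signal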
Of the large screens only hits and unclear results are named; the others gave an inactive call (follow-up assays come after a bar, where they were run). Only some compounds are listed: those with a hit (about 0.43% of all), similar ones and a draw of the others.

N#Cc1c(N)[n+]([O-])c2ccccc2[n+]1[O-]	GIV Gai3 FP -31.1
CCOC(=O)c1ccc(-n2c(C)cc(C=C3C(=O)N(C)C(=O)N(C)C3=O)c2C)cc1	none
CN1C(=O)C(=Cc2ccccc2OS(=O)(=O)c2ccccc2)C(=O)N(C)C1=O	none
COc1cc(C=C2C(=O)N(C)C(=O)N(C)C2=O)ccc1OS(=O)(=O)c1ccccc1	HCMV UL50-53 inh 62.0
COC(=O)C1C2c3ccccc3O[C@]1(C)N=c1s/c(=C/c3ccc(C(C)C)cc3)c(=O)n12 (stereo not given in full)	none (no result: HCMV UL50-53 inh)
CCOC(=O)c1noc2ncnc(N(Cc3ccco3)C3CCN(C)CC3)c12	none
CCOc1ccc([C@H]2[C@H](C(=O)C34CC5CC(CC(C5)C3)C4)N3C=Cc4ccccc4[C@H]3C2(C#N)C#N)cc1	none (no result: HCMV UL50-53 inh)
COc1nc(OC)nc(N2CC3CC(C2)c2cccc(=O)n2C3)n1 (stereo not given)	none (no result: HCMV UL50-53 inh)
Cn1c(=O)[nH]c2nncnc2c1=O	HCMV UL50-53 inh 78.5
COc1ccc(C2N3CCCN23)cc1 (stereo not given)	none
O=C1[C@@H]2CCCN2[C@@H](c2ccc(Br)cc2)N1c1ccccn1	none
O=C(c1cccc2c1NC(c1ccc(Br)cc1)C1CC(Sc3ccccc3[N+](=O)[O-])C(Cl)C21)N1CCCC1 (stereo not given)	none (no result: HCMV UL50-53 inh)
COc1cccc(N2C(=O)NC(=O)/C(=C\c3cc(OC)c(O)c(OC)c3)C2=O)c1	none
O=C1NC(=O)C(=Cc2ccccc2OCCOc2ccc([N+](=O)[O-])cc2)C(=O)N1	none
CC(C)(C)c1ccc(OCCOc2ccccc2C=C2C(=O)NC(=O)NC2=O)cc1	HCMV UL50-53 inh 64.6
CN(C)c1ccc(/C=N/NC(=O)CN2C(=O)CN=C(c3ccccc3)c3cc(Br)ccc32)cc1	none (no result: HCMV UL50-53 inh)
Cn1c(CCCC(=O)O)nc2cc(N(CCCl)CCCl)ccc21	HCMV UL50-53 inh 66.6
C1=C(c2cccnc2)Nc2ncnn2C1c1cccs1 (stereo not given)	GIV Gai3 FP -74.0
N#CC(C#N)=Cc1ccc(O)cc1	none (no result: GIV Gai3 FP)
CCN(CC)c1ccc(C=C(C#N)C#N)cc1	GIV Gai3 FP 50.9
Cc1ccc2c(c1)C1CN(C)CCC1N2 (stereo not given)	GIV Gai3 FP 84.0
CC(=O)N1c2ccc(C)cc2C2CN(C)CCC21 (stereo not given)	none (no result: HCMV UL50-53 inh)
CC(C)(C)n1ncc(Cl)c(Cl)c1=O	none
Fc1ccc(C2NCCc3[nH]cnc32)c(F)c1F (stereo not given)	none
C=CCN1C(=O)NC(=O)/C(=C/c2ccc(OCc3ccc(Cl)cc3)cc2)C1=O	none
CCOC(=O)C1C2NC(=S)NC1(C)Oc1ccccc12 (stereo not given)	none
CCOC(=O)c1cc(CC)sc1/N=C/C1C(=O)NC(=S)NC1=O	GIV Gai3 FP -36.2 (no result: HCMV UL50-53 inh)
O=C1NC(=O)C2(C(=O)N1)C(c1ccccc1Cl)CC(O)CC2c1ccccc1Cl (stereo not given)	none (no result: GIV Gai3 FP)
O=Cc1cn(Cc2ccc(Cl)cc2)c2ccccc12	none (no result: GIV Gai3 FP)
O=C1NC(=O)C(=Cc2cn(Cc3ccccc3)c3ccccc23)C(=O)N1	GIV Gai3 FP -5.9 (no result: HCMV UL50-53 inh)
COc1cc(C=C2C(=O)NC(=O)NC2=O)cc(Cl)c1OCCOc1ccccc1	none
CCOc1cc(C=C2C(=O)NC(=O)NC2=O)cc(Cl)c1O	GIV Gai3 FP 72.2 | GIV-Gai FP conf inactive | GIV-Gai AS conf 5092
CN(N=O)c1ccc(O)c(O)c1	GIV Gai3 FP 37.0, HCMV UL50-53 inh 101.6 | GIV-Gai FP conf 42.5 | GIV-Gai AS conf 3178
CCCC[N+]1(C)[C@@H]2CC(OC(=O)C(CO)c3ccccc3)C[C@H]1[C@@H]1O[C@@H]12 (stereo not given in full)	none (no result: GIV Gai3 FP)
CCn1cc(C(=O)c2ccccc2)c2ccccc21	none
CCn1cc(C=C2C(=O)NC(=O)NC2=O)c2ccccc21	none | GIV-Gai FP conf 18.6 | GIV-Gai AS conf 15779
O=C(O)c1cn(-c2ccccc2)c2cc(N3CCNCC3)c(F)cc2c1=O	none (no result: HCMV UL50-53 inh)
CCOC(=O)c1c(CN2CCN(c3ccccc3)CC2)n(Cc2ccccc2)c2cc(Br)c(O)cc12	none (no result: HCMV UL50-53 inh)
COc1ccccc1N1C(=O)NC(=O)/C(=C\C=C\c2ccco2)C1=O	none (no result: HCMV UL50-53 inh)
C=CCN1C(=O)/C(=C/c2ccco2)C(=O)NC1=S	GIV Gai3 FP 45.8 | GIV-Gai FP conf 52.1 | GIV-Gai AS conf 936
C=CCN1C(=O)NC(=O)/C(=C/c2ccco2)C1=O	none (no result: HCMV UL50-53 inh)
O=C1NC(=O)N(Cc2ccco2)C(=O)/C1=C\c1ccco1	GIV Gai3 FP 61.3 | GIV-Gai FP conf 46.4 | GIV-Gai AS conf 1412
CC(C)c1ccccc1N=C1SCCN1C	none (no result: GIV Gai3 FP)
CCCCC/C=C\C/C=C\C/C=C\C/C=C\CCCC(=O)NOCCO	none (no result: GIV Gai3 FP)
CC[C@@]1(O)C(=O)OCc2c1cc1n(c2=O)Cc2cc3c(O)cccc3nc2-1	GIV Gai3 FP 76.6 | GIV-Gai FP conf 61 | GIV-Gai AS conf inactive
CC[C@@]1(O)C(=O)OCc2c1cc1n(c2=O)Cc2cc3ccccc3nc2-1	none
C=CCNC(=O)c1c(N)n(Cc2ccc(OC)cc2)c2nc3ccccc3nc12	none (no result: GIV Gai3 FP)
O=C(Cc1ccccc1)N1CCN(Cc2cc(=O)n3nc(-c4ccccc4Cl)sc3n2)CC1	none (no result: HCMV UL50-53 inh)
O=C1NC(=O)C(=Cc2ccc(-c3cc(C(=O)O)ccc3Cl)o2)C(=O)N1	GIV Gai3 FP 59.4 | GIV-Gai FP conf 59.8 | GIV-Gai AS conf 4991
COc1ccc(N2C(=O)/C(=C/c3ccc(-c4cc(C(=O)O)ccc4Cl)o3)C(=O)NC2=S)cc1	none
c1ccc(CCNCc2ccc3nccnc3c2)cc1	none
O=C1NC(=S)N(c2ccc(Br)cc2)C(=O)/C1=C\c1ccc(-c2ccccc2C(=O)O)o1	none
CN1C(=O)/C(=C/c2ccc(I)o2)C(=O)NC1=S	GIV Gai3 FP 46.4 | GIV-Gai FP conf 56.3 | GIV-Gai AS conf 812
C#CCN1CCC2=C(C1)c1c(O)cc(C(C)CCCCc3ccc(F)cc3)cc1OC2(C)C (stereo not given)	none (no result: HCMV UL50-53 inh)
NCCc1cc(O)c(O)cc1O	none (no result: GIV Gai3 FP)
NC(Cc1cc(O)c(O)cc1O)C(=O)O (stereo not given)	GIV Gai3 FP 71.0, HCMV UL50-53 inh 76.3 | GIV-Gai FP conf 33.9 | GIV-Gai AS conf 2389
COc1cc(CN2CCN(C(=O)Cc3ccccc3)CC2)cc(OC)c1OC	none
COc1cc(C(c2c(C)[nH]n(-c3ccccc3)c2=O)c2c(C)[nH]n(-c3ccccc3)c2=O)cc(OC)c1OC	GIV Gai3 FP 79.0 (no result: HCMV UL50-53 inh) | GIV-Gai FP conf 52.8 | GIV-Gai AS conf 19198
O=C(c1ccc(Cl)c(Cl)c1)C12CN3CN(CN(C3)C1)C2	none
COc1cc(/C=c2/sc3nc4ccccc4n3c2=O)cc(OC)c1OC(=O)N(C)C	none
